# Values of other authors, collected in patent US20090306093A1, “METHOD FOR TREATING PATIENT HAVING BENIGN PROSTATE HYPERPLASIA” (KAOHSIUNG MEDICAL UNIVERSITY, priority 2008, published 2009).
# Chains of the proteins cited; added tags and fusions are not shown.
# UniProt P35368, whole entry: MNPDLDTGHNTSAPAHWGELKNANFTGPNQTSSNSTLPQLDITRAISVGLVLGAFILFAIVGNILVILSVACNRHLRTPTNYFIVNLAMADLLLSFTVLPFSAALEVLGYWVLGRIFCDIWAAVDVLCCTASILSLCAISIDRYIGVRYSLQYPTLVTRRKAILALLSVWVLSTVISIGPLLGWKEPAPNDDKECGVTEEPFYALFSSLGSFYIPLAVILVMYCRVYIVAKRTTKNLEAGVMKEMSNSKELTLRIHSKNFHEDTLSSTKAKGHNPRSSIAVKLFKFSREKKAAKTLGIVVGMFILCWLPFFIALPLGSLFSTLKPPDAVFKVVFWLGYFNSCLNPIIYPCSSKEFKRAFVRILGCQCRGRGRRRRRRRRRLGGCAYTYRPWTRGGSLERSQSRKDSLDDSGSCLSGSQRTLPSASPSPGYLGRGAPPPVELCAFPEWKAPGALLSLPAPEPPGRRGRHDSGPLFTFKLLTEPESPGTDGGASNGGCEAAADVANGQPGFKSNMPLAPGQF
# Target: a1B-adrenergic receptor (Homo sapiens, UniProt P35368)
# Settings: data from the reference; cited from earlier work
smiles,measurement,value
COc1cc2nc(N3CCN(C(=O)C4COc5ccccc5O4)CC3)nc(N)c2cc1OC (stereo not shown) [doxazosin],Receptor Affinity (pKi) a1B,8.98
